Source: publication PMC11666562, “A shorter linker in the bispecific antibody RmAb158-scFv8D3 improves TfR-mediated blood-brain barrier transcytosis in vitro” (Scientific Reports, 2024)

Target: the molecule itself
Test: mass photometry; mTfR_(Pro119) at 119 nM in PBS, Refeyn 2MP; monomer to dimer

B1: mTfR_(Pro119), extracellular domain of murine transferrin receptor (domain or fragment)
chain: not shown
notes: murine transferrin receptor 1 (mTfR), extracellular domain (ectodomain); construct called mTfR_(Pro119); theoretical molecular weight of the polypeptide 78 kDa; The methods name only a Protein G column for all proteins, so a tag or fusion partner may be present (surmise); also called mTfR ectodomain; murine TfR1; source: Expi293 cells, transient transfection, purified from the cell culture medium
stoichiometry N: 2
